The series in a line: blood morphology, blood biochemistry and organ weights of mice with 67NR tumor. The following applies: Table S2, mice with 67NR tumor, 50 mg/kg.

Turning to `NS(=O)(=O)Oc1ccc(-c2cn(-c3cc(F)cc(F)c3)nn2)cc1` [5l, 4-(1-(3,5-difluorophenyl)-1H-1,2,3-triazol-4-yl)phenyl sulfamate], the MPV is recorded as 5±0,1 fL.

These data come from publication PMC8958511, “Development of Sulfamoylated 4-(1-Phenyl-1H-1,2,3-triazol-4-yl)phenol Derivatives as Potent Steroid Sulfatase Inhibitors for Efficient Treatment of Breast Cancer” (Journal of Medicinal Chemistry, 2022).
